Only a part is listed here, and it is no random draw. Results filed as inconclusive are left out. The source made the active and inactive calls. Calls come from the whole dose curve; as a rule, active = well fitted curve in either direction with a large enough effect (not every such curve was filed as active); inconclusive = small, poorly fitted or top-dose-only effect, or another doubt; inactive = flat fitted curve, though single readings scatter.
molecular target: Mitogen-activated protein kinase 10 (Mus musculus) (UniProt Q61831); test: JNK3 AlphaScreen Assay (AID 530); settings: JNK3 lysate, c-Jun phosphorylation; at 57.1 µM (top of the series) unless noted;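 note: kinase came from lysate of stimulated human HepG2 cells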
Text: NIH Chemical Genomics Center [NCGC]
NIH Molecular Libraries Screening Centers Network [MLSCN]
The c-jun N-terminal kinase (JNK) family are serine/threonine protein kinases that phosphorylate c-jun, a component of the transcription factor […] (AP-1). JNK kinases are members of the mitogen-activated protein kinase family including the extracellular regulated kinases and p38 kinases. Three JNK genes (JNK 1, 2, and 3) have been identified in humans so far. JNK1 and JNK2 have a broad distribution and JNK3 is primarily found in neuronal tissues and cardiac myocytes.
JNK3 has been under consideration as a target for the treatment of neurodegenerative disorders. […] JNK pathway is also involved in pathological process in a mouse model of Parkinson's disease (Xia et al., 2001).
Given these potential tissue distributions and links to neuroprotection, JNK3 inhibitors should provide useful investigational tools to study the role of this kinase in several diseases including, arthritis, stroke, myocardial infarction, ischemic injury and Parkinson's disease.
A homogeneous AlphaScreen is developed to measure the activity of JNK3. AlphaScreen is a two bead-based proximity-dependent chemical energy transfer luminescent assay platform. The phosphorylation of a biotinylated c-jun substrate by JNK3 can be detected with an antibody raised against phosphorylated c-jun. This process brings streptavidin donor beads and Protein-A acceptor beads to within a proximity range of <200 nm, and subsequently lead a chemical luminescent reaction upon exciting donor beads with 680 nm laser excitation light. Inhibition of JNK3 activity by small molecules and subsequent decrease in the antibody binding to biotinylated c-jun could attenuate or abolish this chemical luminescent reaction.
Yang DD, Kuan CY, Whitmarsh AJ, Rincon M, Zheng TS, Davis RJ, Rakic P and Flavell RA (1997) Absence of excitotoxicity-induced apoptosis in the hippocampus of mice lacking the Jnk3 gene. Nature 389:865-870. [PMID: 9349820]
Herdegen T, Claret FX, Kallunki T, Martin-Villalba A, Winter C, Hunter T, and Karin M (1998) Lasting N-terminal phosphorylation of c-Jun and activation of c-Jun N-terminal kinases after neuronal injury. J.Neurosci. 18:5124-5135. [PMID: 9651196]
Xia XG, Harding T, Weller M, Bieneman A, Uney JB and Schulz JB (2001) Gene transfer of the JNK interacting protein-1 protects dopaminergic neurons in the MPTP model of Parkinson's disease. Proc.Natl.Acad.Sci.U.S.A. 98:10433-10438.
NCGC Assay Protocol Summary:
GST-cJun (1-79) (Stratagene, La Jolla CA, #205145) was biotnylated by PerkinElmer (PerkinElmer-BioSignalInc. Montreal, Canada) and was detectable by the streptavidin Donor beads. Anti-(phospho)cJun (Ser73) antibody was from UpState (Charlottesvilles, VA, #06-659). JNK3-containing lysates were generated from HepG2 cells and pre-activated by interleukin1-beta and tumor necrosis factor alpha. All reagents were stored at -20 C before using. Phosphorylated biotinylated-GST-cJun was recognized by Anti-(phospho)cJun (Ser73) antibody and this process brings acceptor and donor beads together. Therefore JNK3 phosphorylation of cJun can be measured by Alpha reading by EnVision (PerkinElmer, Boston, MA).
The composition of kinase buffer was (in mM) 20 tris- HCl (pH 7.6) 10 MgCl2, 1 DTT, and 0.1 Na3VO4 and 0.01% Tween-20. Beads were diluted in detection buffer containing (in mM) 20 tris-HCl (pH 7.7), 20 NaCl and 80 EDTA and 0.3% BSA. The assay was performed at room temperature. All compounds were screened as titrations from 0.6 nM to 46 uM final concentration. The assay was performed in 1536-well format (white solid bottom and untreated) as follows:
Sequence,Parameter,Value,Description
1,Reagent,3 uL,Biotin-GST-cJun, Anti-(phospho)cJun and pre-activated JNK3-containing lysates
2,Compound,23 nL,Final concentration was 0.6nM to 46uM
3,Time,15 minutes,Room Temperature
4,Reagent,1 uL,ATP final concentration 10uM
6,Reagent,0.5 uL,2ng/well bead mixture
[…]
% is set by controls: 0 for no effect and ±100 for the full control effect.

| SMILES | activity change, negative = inhibition |
| --- | --- |
| Cc1cccc([N+](=O)[O-])c1[N+](=O)[O-] | inactive: 2.99% |
| C/C1=C2N=C(/C=C3N=C(/C(C)=C4\[N-][C@@](C)([C@H]5N=C1[C@@](C)(CCC(=O)NC[C@H](C)OP(=O)([O-])O[C@@H]1[C@H](O)[C@H](n6cnc7cc(C)c(C)cc76)O[C@@H]1CO)[C@@H]5CC(N)=O)[C@](C)(CC(N)=O)[C@H]4CCC(N)=O)[C@@](C)(CC(N)=O)[C@@H]\3CCC(N)=O)C(C)(C)[C@@H]/2CCC(N)=O.[C-]#N.[Co+3] | inactive: -7.23% [at 25.6 µM] |
| Cc1c([N+](=O)[O-])cccc1[N+](=O)[O-] | inactive: 17.1% |
| O=[N+]([O-])c1cccc([N+](=O)[O-])c1 | inactive: 22.7% |
| N1=C(c2nnc(-c3nn[nH]n3)nn2)NNN1 | inactive: 4.55% [at 11.4 µM] |
| NNC(NN)NN.n1nc(-c2nn[nH]n2)n[nH]1 | inactive: 1.31% [at 11.4 µM] |
| O=[N+]([O-])[O-].[NH4+] | inactive: -4.3% |
| [NH4+].[O-][Cl+3]([O-])([O-])[O-] | inactive: 0.491% |
| CCC(C)(OO)OOC(C)(CC)OO (stereo not drawn) | inactive: 10.6% |
| Cc1ccc([N+](=O)[O-])cc1[N+](=O)[O-] | inactive: -11.5% |
| Cc1ccc([N+](=O)[O-])c([N+](=O)[O-])c1 | inactive: -1.48% |
| CCOP(=O)(CC)OCC | inactive: 12.5% |
| N#[O+].[C-]#N.[C-]#N.[C-]#N.[C-]#N.[C-]#N.[Fe+2].[Na+].[Na+] | inactive: -13% |

— PubChem BioAssay (NCATS)
